# Earlier results in US6468762B1, “High specificity homocysteinases” (AntiCancer, Inc., priority 1997, dated 2002).
# Legend:
# [1] = highly purified and active enzyme; unit = 1 micromole substrate converted per minute; cited from earlier work
# [2] = scale where activity toward methionine is assigned 100; cited from earlier work
# [3] = scale where activity toward methionine is assigned 100; cited from earlier work; remark: listed apart in the source
# [4] = scale where activity toward methionine is assigned 100; cited from earlier work; remark: listed apart in the source
substance,measurement,setting,value
L-methionine-alpha-deamino-gamma-mercaptomethane lyase [P. putida enzyme],specific activity,[1],about 20 units/mg
same,relative activity toward homocysteine,[2],180
same,relative activity toward methionine,[3],100
same,relative activity toward cysteine,[4],10
